pEC50, pKi: −log10 of the molar value.
Legend:
[1] = target: T1, human 5-hydroxytryptamine-2C (h-5-HT2C) receptor (Homo sapiens, UniProt P28335); test: [125I]DOI binding to membranes of CHO cells expressing h-5-HT2C receptor; conditions: reference compounds; [125I]DOI radioligand, CHO cell membranes; read-out: Ki (95% confidence interval)
T1 construct: expressed in transfected cells; host or cells: Chinese Hamster Ovary (CHO) cells; membrane preparation

Chains of the proteins cited; added tags and fusions are not shown. Residues count along the entry.
UniProt P28335, 33-458: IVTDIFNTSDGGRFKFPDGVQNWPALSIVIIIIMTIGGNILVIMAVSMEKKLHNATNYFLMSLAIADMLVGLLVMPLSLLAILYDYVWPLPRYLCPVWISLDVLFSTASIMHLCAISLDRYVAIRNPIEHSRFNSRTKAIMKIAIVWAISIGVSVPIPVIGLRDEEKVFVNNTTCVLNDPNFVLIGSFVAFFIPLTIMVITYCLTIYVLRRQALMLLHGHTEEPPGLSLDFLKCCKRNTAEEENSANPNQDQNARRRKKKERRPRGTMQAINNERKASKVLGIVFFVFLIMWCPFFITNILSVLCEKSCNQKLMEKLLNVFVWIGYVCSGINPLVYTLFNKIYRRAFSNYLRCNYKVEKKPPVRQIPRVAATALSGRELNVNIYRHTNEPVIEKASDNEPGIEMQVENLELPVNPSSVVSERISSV

human 5-HT2C receptor = target: T2, human 5-HT2C receptor (Homo sapiens, UniProt P28335); test: 5-HT2C receptor-stimulated calcium mobilization (FLIPR) in CHO cells; type: cell-based; conditions: reference compounds
T2 construct: expressed in transfected cells

## Clc1cccc(N2CCNCC2)c1 [mCPP, meta-chlorophenylpiperazine, reference compound]
[1]
  pKi: 8.19
Human 5-HT2C receptor
  pEC50: 8.27

From US7608626B2, “Substituted indolizines and derivatives as CNS agents” (Wyeth, priority 2004, dated 2009)
